Data: patent US20250195530A1, “POLQ INHIBITORS” (ASTRAZENECA AB, priority 2022, published 2025)

Chains of the proteins cited; added tags and fusions are not shown. Residues count along the entry.
UniProt O75417, 1780-2590: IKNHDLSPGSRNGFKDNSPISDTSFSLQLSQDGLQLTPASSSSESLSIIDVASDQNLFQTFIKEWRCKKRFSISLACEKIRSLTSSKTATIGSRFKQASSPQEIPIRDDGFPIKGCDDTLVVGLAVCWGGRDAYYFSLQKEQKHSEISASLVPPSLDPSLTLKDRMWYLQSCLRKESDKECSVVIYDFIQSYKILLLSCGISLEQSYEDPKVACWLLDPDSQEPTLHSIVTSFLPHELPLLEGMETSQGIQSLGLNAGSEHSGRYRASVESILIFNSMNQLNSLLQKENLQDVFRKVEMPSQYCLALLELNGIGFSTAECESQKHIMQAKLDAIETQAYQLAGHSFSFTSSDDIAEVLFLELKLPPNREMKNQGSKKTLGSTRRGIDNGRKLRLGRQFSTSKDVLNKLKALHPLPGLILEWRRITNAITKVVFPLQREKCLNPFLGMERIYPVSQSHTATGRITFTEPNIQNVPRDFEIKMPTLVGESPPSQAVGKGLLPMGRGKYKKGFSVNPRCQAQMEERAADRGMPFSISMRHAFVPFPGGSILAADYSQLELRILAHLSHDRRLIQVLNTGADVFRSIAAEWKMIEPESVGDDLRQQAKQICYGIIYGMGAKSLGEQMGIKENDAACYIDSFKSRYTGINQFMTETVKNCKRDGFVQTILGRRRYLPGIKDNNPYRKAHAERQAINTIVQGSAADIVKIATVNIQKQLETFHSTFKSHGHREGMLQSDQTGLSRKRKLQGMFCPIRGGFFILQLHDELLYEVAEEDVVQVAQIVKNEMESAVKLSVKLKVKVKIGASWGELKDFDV

Target: isolated polymerase domain (I1780-V2590) of DNA polymerase theta (Polθ) (Homo sapiens (Human), UniProt O75417)
Experiment: biochemical

SMILES | IC50
COc1ccc(C)cc1Cn1c(-c2cccc(OCCC(=O)O)c2Cl)nc2c(OC3(C)CC3)ncnc21 [Example U89, 3-(2-chloro-3-(9-(2-methoxy-5-methylbenzyl)-6-(1-methylcyclopropoxy)-9H-purin-8-yl)phenoxy)propanoic acid] | 5.01 nM
CNCCOc1ccc(-c2nc3c(OC4(C)CC4)ncnc3n2Cc2cc(Cl)ccn2)c(Cl)c1 [Example T67, 2-(3-chloro-4-(9-((4-chloropyridin-2-yl)methyl)-6-(1-methylcyclopropoxy)-9H-purin-8-yl)phenoxy)-N-methylethan-1-amine] | 10 nM
CC1(Oc2ncnc3c2nc(-c2ccc(OCCCc4nnn[nH]4)cc2Cl)n3Cc2cccc(Cl)c2)CC1 [Example T164, 8-(4-(3-(1H-tetrazol-5-yl)propoxy)-2-chlorophenyl)-9-(3-chlorobenzyl)-6-(1-methylcyclopropoxy)-9H-purine] | 6.31 nM
CC1(Oc2ncnc3c2nc(-c2cccc(OCCC(=O)O)c2Cl)n3Cc2cccc(Cl)c2)CC1 [Example T89, 3-(2-chloro-3-(9-(3-chlorobenzyl)-6-(1-methylcyclopropoxy)-9H-purin-8-yl)phenoxy)propanoic acid] | 6.31 nM
Cc1ccnc(Cn2c(-c3ccc(OCC(=O)N4CCC[C@H]4CO)cc3Cl)nc3c(OC4(C)CC4)ncnc32)c1 [Example T576, (S)-2-(3-chloro-4-(6-(1-methylcyclopropoxy)-9-((4-methylpyridin-2-yl)methyl)-9H-purin-8-yl)phenoxy)-1-(2-(hydroxymethyl)pyrrolidin-1-yl)ethan-1-one] | 10 nM
C[C@H](CCOc1ccc(-c2nc3c(OC4(C)CC4)ncnc3n2Cc2cccc(Cl)c2)c(Cl)c1)C(=O)O (single isomer, unassigned; isomer 1) [Example 34, 4-(3-Chloro-4-(9-(3-chlorobenzyl)-6-(1-methylcyclopropoxy)-9H-purin-8-yl)phenoxy)-2-methylbutanoic acid (Isomer 1)] | 5.01 nM
Cc1ccnc(Cn2c(-c3ccc(N)cc3Cl)nc3c(OC4(C)CC4)ncnc32)c1 [Example T3, 3-chloro-4-(6-(1-methylcyclopropoxy)-9-((4-methylpyridin-2-yl)methyl)-9H-purin-8-yl)aniline] | 7.94 nM
Cc1ccnc(Cn2c(-c3ccc(CC(=O)N4C[C@@H]5C[C@H]4CN5)cc3Cl)nc3c(OC4(C)CC4)ncnc32)c1 [Example T559, 1-((1S,4S)-2,5-diazabicyclo[2.2.1]heptan-2-yl)-2-(3-chloro-4-(6-(1-methylcyclopropoxy)-9-((4-methylpyridin-2-yl)methyl)-9H-purin-8-yl)phenyl)ethan-1-one] | 7.94 nM
Cc1ccnc(Cn2c(-c3ccc(OC4CCCNCC4)cc3Cl)nc3c(OC4(C)CC4)ncnc32)c1 (single isomer, unassigned) [Example T509, 8-(4-(azepan-4-yloxy)-2-chlorophenyl)-6-(1-methylcyclopropoxy)-9-((4-methylpyridin-2-yl)methyl)-9H-purine] | 3.98 nM
Cc1ccc(C)c(Cn2c(-c3ccc(OCCC(C)C(=O)O)cc3Cl)nc3c(OC4(C)CC4)ncnc32)c1 (racemic) [Example T569, 4-(3-chloro-4-(9-(2,5-dimethylbenzyl)-6-(1-methylcyclopropoxy)-9H-purin-8-yl)phenoxy)-2-methylbutanoic acid] | 5.01 nM
Cc1ccnc(Cn2c(-c3ccc(OCC(=O)N(C)CCC#N)cc3Cl)nc3c(OC4(C)CC4)ncnc32)c1 [Example T430, 2-(3-chloro-4-(6-(1-methylcyclopropoxy)-9-((4-methylpyridin-2-yl)methyl)-9H-purin-8-yl)phenoxy)-N-(2-cyanoethyl)-N-methylacetamide] | 15.8 nM
CC(COc1ccc(-c2nc3c(OC4(C)CC4)ncnc3n2Cc2ccccc2C#N)c(Cl)c1)CC(=O)O (racemic) [Example U25, 4-(3-chloro-4-(9-(2-cyanobenzyl)-6-(1-methylcyclopropoxy)-9H-purin-8-yl)phenoxy)-3-methylbutanoic acid] | 10 nM
Cc1ccnc(Cn2c(-c3ccc(OCC(=O)NCC(C)(C)O)cc3Cl)nc3c(OC4(C)CC4)ncnc32)c1 [Example T517, 2-(3-chloro-4-(6-(1-methylcyclopropoxy)-9-((4-methylpyridin-2-yl)methyl)-9H-purin-8-yl)phenoxy)-N-(2-hydroxy-2-methylpropyl)acetamide] | 7.94 nM
Cc1ccnc(Cn2c(-c3ccc(OCCNC(=O)[C@@H](C)O)cc3Cl)nc3c(OC4(C)CC4)ncnc32)c1 [Example T375, (R)-N-(2-(3-chloro-4-(6-(1-methylcyclopropoxy)-9-((4-methylpyridin-2-yl)methyl)-9H-purin-8-yl)phenoxy)ethyl)-2-hydroxypropanamide] | 5.01 nM
Cc1ccnc(Cn2c(-c3ccc(OCC(=O)N4CC(F)C4)cc3Cl)nc3c(OC4(C)CC4)ncnc32)c1 [Example T283, 2-(3-chloro-4-(6-(1-methylcyclopropoxy)-9-((4-methylpyridin-2-yl)methyl)-9H-purin-8-yl)phenoxy)-1-(3-fluoroazetidin-1-yl)ethan-1-one] | 5.01 nM
Cc1cnnc(Cn2c(-c3ccc(CC(N)=O)cc3Cl)nc3c(OC4(C)CC4)ncnc32)c1 [Example T18, 2-(3-chloro-4-(6-(1-methylcyclopropoxy)-9-((5-methylpyridazin-3-yl)methyl)-9H-purin-8-yl)phenyl)acetamide] | 200 nM
CC1(Oc2ncnc3c2nc(-c2ccc(CC(N)=O)cc2Cl)n3Cc2ccnc(C(F)(F)F)c2)CC1 [Example T35, 2-(3-chloro-4-(6-(1-methylcyclopropoxy)-9-((2-(trifluoromethyl)pyridin-4-yl)methyl)-9H-purin-8-yl)phenyl)acetamide] | 39.8 nM
Cc1ccnc(Cn2c(-c3ccc(OCCN4CCNCC4)cc3Cl)nc3c(OC(C)(C)C)cccc32)c1 [Example T609, 4-(tert-butoxy)-2-(2-chloro-4-(2-(piperazin-1-yl)ethoxy)phenyl)-1-((4-methylpyridin-2-yl)methyl)-1H-benzo[d]imidazole] | 3.98 nM
CC1(Oc2ncnc3c2nc(-c2ccc(CCCCC(=O)O)cc2Cl)n3Cc2ccccc2C#N)CC1 [Example U20, 5-(3-chloro-4-(9-(2-cyanobenzyl)-6-(1-methylcyclopropoxy)-9H-purin-8-yl)phenyl)pentanoic acid] | 6.31 nM
CCc1nnc(Cn2c(-c3ccc(CC(N)=O)cc3Cl)nc3c(OC4(C)CC4)ncnc32)o1 [Example T10, 2-(3-chloro-4-(9-((5-ethyl-1,3,4-oxadiazol-2-yl)methyl)-6-(1-methylcyclopropoxy)-9H-purin-8-yl)phenyl)acetamide] | 2000 nM
CC1(Oc2cccc3c2nc(-c2ccc(OCCN4CCNCC4)cc2Cl)n3Cc2cccc(Cl)c2)CCC1 [Example T611, 2-(2-chloro-4-(2-(piperazin-1-yl)ethoxy)phenyl)-1-(3-chlorobenzyl)-4-(1-methylcyclobutoxy)-1H-benzo[d]imidazole] | 15.8 nM

More lines, in order of falling IC50, values ahead:

IC50 | SMILES
398 nM | CNC(=O)c1ccc(Cl)c(-c2nc3c(OC4(C)CC4)ncnc3n2Cc2cc(C)ccn2)c1 [Example T54, 4-chloro-N-methyl-3-(6-(1-methylcyclopropoxy)-9-((4-methylpyridin-2-yl)methyl)-9H-purin-8-yl)benzamide]
25.1 nM | Cc1ccnc(Cn2c(-c3ccc(C(=O)NC4COC4)cc3Cl)nc3c(OC4(C)CC4)ncnc32)c1 [Example T177, 3-chloro-4-(6-(1-methylcyclopropoxy)-9-((4-methylpyridin-2-yl)methyl)-9H-purin-8-yl)-N-(oxetan-3-yl)benzamide]
20 nM | CC1(Oc2ncnc3c2nc(-c2ccc(OCCN4CCNCC4)cc2Cl)n3Cc2cncc(Cl)c2)CC1 [Example T379, 8-(2-chloro-4-(2-(piperazin-1-yl)ethoxy)phenyl)-9-((5-chloropyridin-3-yl)methyl)-6-(1-methylcyclopropoxy)-9H-purine]
15.8 nM | Cc1ccnc(Cn2c(-c3ccc(N4CCOCC4=O)cc3Cl)nc3c(OC4(C)CC4)ncnc32)c1 [Example T182, 4-(3-chloro-4-(6-(1-methylcyclopropoxy)-9-((4-methylpyridin-2-yl)methyl)-9H-purin-8-yl)phenyl)morpholin-3-one]
10 nM | Cc1ccnc(Cn2c(-c3ccc(CC(=O)N4C[C@@H](O)[C@H](F)C4)cc3Cl)nc3c(OC4(C)CC4)ncnc32)c1 [Example T422, 2-(3-chloro-4-(6-(1-methylcyclopropoxy)-9-((4-methylpyridin-2-yl)methyl)-9H-purin-8-yl)phenyl)-1-((3R,4R)-3-fluoro-4-hydroxypyrrolidin-1-yl)ethan-1-one]
7.94 nM | Cc1ccnc(Cn2c(-c3ccc(OCC(=O)NC4CC(O)C4)cc3Cl)nc3c(OC4(C)CC4)ncnc32)c1 (stereo not shown) [Example T479, 2-(3-chloro-4-(6-(1-methylcyclopropoxy)-9-((4-methylpyridin-2-yl)methyl)-9H-purin-8-yl)phenoxy)-N-(3-hydroxycyclobutyl)acetamide]
6.31 nM | Cc1ccnc(Cn2c(-c3ccc(N4CC5CC4CCN5)cc3Cl)nc3c(OC4(C)CC4)ncnc32)c1 (racemic) [Example T491, 8-(4-(2,6-diazabicyclo[3.2.1]octan-6-yl)-2-chlorophenyl)-6-(1-methylcyclopropoxy)-9-((4-methylpyridin-2-yl)methyl)-9H-purine]
6.31 nM | Cc1ccnc(Cn2c(-c3ccc(OCC(F)(F)CO)cc3Cl)nc3c(OC4(C)CC4)ncnc32)c1 [Example T98, 3-(3-chloro-4-(6-(1-methylcyclopropoxy)-9-((4-methylpyridin-2-yl)methyl)-9H-purin-8-yl)phenoxy)-2,2-difluoropropan-1-ol]
5.01 nM | COc1ccc(Cl)cc1Cn1c(-c2cccc(OCCCOC(C)(C)C(=O)O)c2Cl)nc2c(OC3(C)CC3)ncnc21 [Example U90, 2-(3-(2-chloro-3-(9-(5-chloro-2-methoxybenzyl)-6-(1-methylcyclopropoxy)-9H-purin-8-yl)phenoxy)propoxy)-2-methylpropanoic acid]
2 nM | CC(C)Oc1ccc2c(c1)nc(-c1ccc(OC3CCCN(C)CC3)cc1Cl)n2Cc1ccccc1 (single isomer, unassigned) [Example A10, 1-benzyl-2-(2-chloro-4-((1-methylazepan-4-yl)oxy)phenyl)-5-isopropoxy-1H-benzo[d]imidazole]
